Source: US5620955A, “Bombesin receptor antagonists and uses thereof” (Peptide Technologies Corporation, priority 1993, dated 1997)

Amino acid sequences for entries named in this document (tags omitted).
UniProt P30551, whole entry: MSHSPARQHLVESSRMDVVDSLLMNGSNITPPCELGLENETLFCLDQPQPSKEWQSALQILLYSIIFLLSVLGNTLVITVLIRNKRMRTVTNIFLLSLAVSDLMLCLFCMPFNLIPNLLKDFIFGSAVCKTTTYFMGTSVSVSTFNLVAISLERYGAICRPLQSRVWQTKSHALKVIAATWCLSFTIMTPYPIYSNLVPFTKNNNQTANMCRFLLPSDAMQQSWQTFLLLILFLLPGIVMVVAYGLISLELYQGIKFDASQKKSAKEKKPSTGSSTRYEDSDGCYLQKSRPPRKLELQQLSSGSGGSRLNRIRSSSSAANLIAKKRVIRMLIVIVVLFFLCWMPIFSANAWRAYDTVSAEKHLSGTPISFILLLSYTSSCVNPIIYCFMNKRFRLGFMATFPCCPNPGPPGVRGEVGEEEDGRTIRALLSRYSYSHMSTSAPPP

Target: CCK Receptor (Rattus norvegicus, UniProt P30551)
Test: Specificity test, CCK-stimulated amylase secretion of rat pancreatic acinar cells after wash
Conditions: no antagonist; CCK 0.1 nM

Amylase Release, Post-Wash 1 Min: 12.6 ± 1.7 % Total | Amylase Release, Post-Wash 30 Min: 8.2 ± 1.0 % Total | Amylase Release, Post-Wash 60 Min: 9.3 ± 2.0 % Total | Amylase Release, Secretion (Wash): 16.4 ± 1.9 % Total
Substance: cholecystokinin [CCK]
